# Laboratory results published in patent publication US5932208A, “Compositions and methods for the use of such compositions in human therapeutics, characterized by the association of a muramyl peptide with a cytokine” (Vacsyn S.A., priority 1993, dated 1999).
# Tested on: KHT sarcoma cells
# Assay: KHT sarcoma model in C3H/HeN mice, IL-2 with murametide
# Format: in vivo
# Protocol: A murine model has been developed in C3H/HeN mice. KHT sarcoma cells are administered by the venous route. After 4 days and 6 days they are treated with:
# c) the association of the two immunomodulators;
# d) a fourth group is not treated.
substance,measurement,value
IL-2: cytokine interleukin-2,Toxicity of IL-2 in mice having tumours,congregate together and are generally inactive
